The values below come from PubChem BioAssay AID2717 (Broad Institute, 2010).

Only a part is listed here, and it is no random draw. Some structures show a salt or complex split into parts, the way the source records it. Activity calls are given as the source filed them. No stated cut-off is given here; in the data, active means inhibition above about 75%; inconclusive means no clear call, values can overlap the other calls; inactive means below that; tested in HMLE shEcad cells.

This test can be described thus: cancer stem cell viability inhibitors, primary screen, luminescence (AID 2717). The settings on record: cancer stem cell-like cells viability, at 7.5 µM, hits give high values.
In the case of `COc1ccc(OP(C)(=O)Nc2ccc(SC(F)(F)F)cc2)cc1` (stereo not drawn), the inhibition was inactive: 3.16%.
On to `CCOC(=O)c1ccc(NP(C)(=O)Oc2ccc(F)cc2)cc1` (stereo not drawn), for which the inhibition is inactive: 6.19%.
For `O=C(OC1CN2CCC1CC2)c1ccccc1` (stereo not drawn), the inhibition is inactive: -12.3%.
For `CCN(CC)CCCOC(=O)C(O)(c1ccccc1)C1CCCCC1` (stereo not drawn), the inhibition was inactive: 3.28%.
In the case of `CCC(=O)N1C2C3N(C(=O)CC)C1C1N(C(=O)CC)C(C(N1C(=O)CC)N3C(=O)CC)N2C(=O)CC`, the inhibition was inactive: -7.84%.
Turning to `COC(=O)c1cc2c(s1)N=C(c1ccccc1)N(C)P2(=O)N1CCOCC1` (stereo not drawn), the inhibition was inactive: -2.77%.
With `CC(=O)NC(SC(=S)N(CC(C)C)CC(C)C)C(Cl)(Cl)Cl` (stereo not drawn), the inhibition was inactive: 23.7%.
Turning to `Cc1ccc(OP(=O)(Nc2ccccn2)Oc2ccc(C)cc2)cc1`, the inhibition is inactive: 0.896%.
In the case of `CC(NC(=O)COC(=O)C(O)(c1ccccc1)c1ccccc1)c1ccccc1` (stereo not drawn) it was inactive: -0.416%; in that of `Cc1ccccc1OP(=O)(Nc1ccccn1)Oc1ccccc1C`, inactive: 1.57%; in that of `CCCCCOc1ccc(NP(C)(=O)Oc2ccc(Cl)cc2Cl)cc1` (stereo not drawn), inactive: 37.3%.
As to `O=[N+]([O-])c1cc([N+](=O)[O-])c(OC2CCCCC2O)c([N+](=O)[O-])c1` (stereo not drawn), the inhibition was inactive: -16.4%.
Regarding `CN(C)C(=O)Oc1noc2ccccc12`, the inhibition is inactive: -5.73%.
In the case of `CP(=O)(Nc1ccccc1)Oc1ccc(F)cc1` (stereo not drawn), the inhibition was inactive: -3.09%.
Turning to `O=P1(Nc2nc3ccc(Cl)cc3s2)COc2ccccc2O1` (stereo not drawn), the inhibition was inactive: 8.99%.
For `CCOc1ccc(C2=NCC(CBr)S2)cc1` (stereo not drawn), the inhibition was inactive: -3.25%.
As to `CC(C)(C)C(=O)NC(Sc1ccccc1)C(Cl)(Cl)Cl` (stereo not drawn), the inhibition is inactive: 5.63%.
Consider `CP(=O)(Nc1ccccc1F)Oc1ccccc1` (stereo not drawn), for which the inhibition is inactive: 1.09%.
Consider `C[C@H]1OP(=O)(Oc2ccccc2)C[C@@H]2O[C@@H]21` (stereo partly drawn), for which the inhibition is inactive: 3.47%.
As to `C[C@@H]1C=CCP(=O)(Oc2ccccc2)O1` (stereo partly drawn), the inhibition was inactive: 3.67%.
On to `CC(=O)c1ccc(N2CC2c2ccncc2)cc1` (stereo not drawn), for which the inhibition is inactive: -9.07%.
As to `O=C(OC1CN2CCC1CC2)c1ccc([N+](=O)[O-])cc1` (stereo not drawn), the inhibition was inactive: -2.2%.
On to `CC(=O)Nc1ccc([As](=O)(O)O)c(O)c1`, for which the inhibition was inactive: -11.5%.
With `COc1ccc2c(c1O)-c1c(O)c(OC)cc3c1[C@H](C2)[N+](C)(C)CC3.O=[N+]([O-])c1cc([N+](=O)[O-])c([O-])c([N+](=O)[O-])c1[O-]`, the inhibition was inactive: -16.8%.
`CC(C)C(=O)NC(Sc1ccccc1)C(Cl)(Cl)Cl` (stereo not drawn): the inhibition is inactive: -12.2%.
Under `O=P(Nc1nccs1)(c1ccccc1)c1ccccc1` stands inactive: 5.07%.
Under `CP(=O)(Nc1ccc(SC(F)(F)F)cc1)Oc1ccc(F)cc1` (stereo not drawn) stands inactive: 2.14%; under `c1nnnn1CCn1cnnn1`, inactive: 2.06%.
As to `CCOP(C)(=S)SCC(=O)NC(C)(CC)C(=O)O` (stereo not drawn), the inhibition is inactive: 10.3%.
As to `CP(=O)(Nc1ccc2c(c1)OCCO2)Oc1ccccc1` (stereo not drawn), the inhibition was inactive: -2.21%.
Under `Cc1ccccc1NP(C)(=O)Nc1ccccc1C` stands inactive: -11.1%; under `O=P(Nc1ccccn1)(c1ccc(Br)cc1)c1ccc(Br)cc1`, inactive: -3.53%.
As to `CN(C)C1(CNC(=O)c2ccc(Cl)c(S(N)(=O)=O)c2)CCCCC1`, the inhibition is inactive: -1.17%.
Regarding `COc1ccc(OP(C)(=O)Nc2cccc(Br)c2)cc1` (stereo not drawn), the inhibition was inactive: -7.89%.
On to `COc1ccc(NP(C)(=O)Oc2ccccc2OC)cc1` (stereo not drawn), for which the inhibition is inactive: -13.2%.
Under `CN(C)CCOC(=O)C(O)(c1ccccc1)C1CCCCC1` (stereo not drawn) stands inactive: 3.13%; under `O=P(Nc1nc2ccccc2s1)(c1ccccc1)c1ccccc1`, inactive: 6.02%; under `C[C@H]1OP(=O)(Oc2ccccc2)[C@H](O)[C@H](O)[C@H]1N=[N+]=[N-]` (stereo partly drawn), inactive: -8.94%.
Take `O=[As](O)(c1ccccc1)c1ccc(O)cc1`: the inhibition was inactive: -7.17%.
For the molecule `O=[N+]([O-])c1cc([N+](=O)[O-])c(NCC2CCS(=O)(=O)C2)c([N+](=O)[O-])c1` (stereo not drawn), the inhibition was inactive: 24.8%.
Take `CC(=O)NC(SC(=S)N(C)C)C(Cl)(Cl)Cl` (stereo not drawn): the inhibition is inactive: -11.2%.
Consider `O=[N+]([O-])c1ccc(OP2(=O)COCCO2)cc1` (stereo not drawn), for which the inhibition is inactive: -4.01%.
For `O=[N+]([O-])c1ncn(CCn2cnc([N+](=O)[O-])n2)n1`, the inhibition was inactive: 0.771%.
In the case of `O=C(OC1CN2CCC1CC2)c1cccc(Cl)c1` (stereo not drawn) it was inactive: -13%; in that of `C(Cc1nn[nH]n1)Cc1nn[nH]n1`, inactive: 6.73%; in that of `Nc1ccc([As](=O)(O)c2ccc([N+](=O)[O-])cc2)cc1`, inactive: -19.2%.
Under `Cc1nn(-c2ccccc2)c2c1P(=O)(N1CCOCC1)N(C)C(c1ccccc1)=N2` (stereo not drawn) stands inactive: -0.852%; under `CC1CCC(C(C)C)C(OP(=O)(Nc2ccccn2)c2ccccc2)C1` (stereo not drawn), inactive: 3.54%; under `Cc1ccc(C(=O)OC2CN3CCC2CC3)cc1` (stereo not drawn), inactive: -7.36%.
For the molecule `COc1cc(C2NCCC3(OCCO3)C2(C)C)cc(OC)c1OC.O=[N+]([O-])c1cc([N+](=O)[O-])c(O)c([N+](=O)[O-])c1` (stereo not drawn), the inhibition was inactive: -5.16%.
For `CN(C)C1(CNC(=O)c2ccc(S(C)(=O)=O)cc2)CCCCC1`, the inhibition was inactive: -15%.
As for `CC1=C2N=C(C=C3N=C(C(C)=C4[N-][C@@](C)([C@@H]5N=C1[C@](C)(CCC(=O)NC[C@@H](C)OP(=O)([O-])O[C@H]1[C@@H](O)[C@@H](n6cnc7cc(C)c(C)cc76)O[C@@H]1CO)[C@H]5CC(N)=O)[C@@](C)(CC(N)=O)[C@@H]4CCC(N)=O)[C@@](C)(CC(N)=O)[C@@H]3CCC(N)=O)C(C)(C)[C@@H]2CCC(N)=O.[C-]#N.[Co+3]`, the inhibition was inactive: 6.05%.
In the case of `O=[N+]([O-])c1cc([N+](=O)[O-])c(Nc2nnnn2CCO)c([N+](=O)[O-])c1`, the inhibition was inactive: -10.9%.
Regarding `CCOC(=O)C(CC)C1=NC(C)(C)Cc2ccccc21.O=[N+]([O-])c1cc([N+](=O)[O-])c(O)c([N+](=O)[O-])c1` (stereo not drawn), the inhibition was inactive: -15.2%.
Consider `O=C(/C=C/c1ccccc1)OC1CN2CCC1CC2` (stereo not drawn), for which the inhibition is inactive: 41.5%.
As to `CN1CCCCC1COC(=O)C1(O)c2ccccc2CCc2ccccc21` (stereo not drawn), the inhibition is inactive: 3.27%.
In the case of `O=P1(Nc2ncccn2)COc2ccccc2OC1` it was inactive: -10.8%; in that of `CCCOc1ccc(NP(C)(=O)Oc2ccc(Cl)cc2)cc1` (stereo not drawn), inactive: -18.1%.
`CP(=O)(Nc1ccc(SC(F)(F)F)cc1)Oc1ccccc1` (stereo not drawn): the inhibition is inactive: 4.8%.
In the case of `Nc1cccc([As](=O)(O)c2ccccc2)c1` it was inactive: -3.67%; in that of `Cc1ccc(OCC(=O)OC2CN3CCC2CC3)cc1` (stereo not drawn), inactive: 2.43%; in that of `O=[As](O)(c1cccs1)c1cccs1`, inactive: 9.29%.
Regarding `O=P1(Nc2ccc(Br)cn2)COc2ccccc2OC1`, the inhibition is inactive: -6.83%.
Take `NS(=O)(=O)c1cccc(NC(=O)COC(=O)C(O)(c2ccccc2)c2ccccc2)c1`: the inhibition was inactive: -12.6%.
Turning to `O=P1(Nc2ccccn2)COc2ccccc2OC1`, the inhibition is inactive: -12.5%.
With `CCC1=CC2Cc3nc4ccc(Cl)cc4c(N)c3C(C1)C2` (stereo not drawn), the inhibition was inactive: 1.58%.
Regarding `O=[N+]([O-])c1cc([N+](=O)[O-])c(-n2nnc3ccccc32)c([N+](=O)[O-])c1`, the inhibition was inactive: -3.83%.
For `CCOP(=O)(NC(=NC(C)c1ccccc1)NC(C)c1ccccc1)OCC` (stereo not drawn), the inhibition is inactive: -14.2%.
Regarding `CCOP(=O)(Nc1ccc(C)cn1)OCC`, the inhibition was inactive: -9%.
`CN(CCCl)Cc1cc(Cl)c(NC2=NCCN2)c(Cl)c1`: the inhibition is inactive: 4.64%.
Consider `Clc1n[nH]nc1-c1nn[nH][15n]1`, for which the inhibition was inactive: -6.51%.
In the case of `CC(C)(C)C(=O)NC(Sc1ncccn1)C(Cl)(Cl)Cl` (stereo not drawn), the inhibition is inactive: -5.37%.
As for `O=[N+]([O-])c1cc([N+](=O)[O-])c(-c2cnn(-c3ccccc3)c2)c([N+](=O)[O-])c1`, the inhibition was inactive: 11.6%.
For the molecule `COc1ccccc1CNC(=O)COC(=O)C(O)(c1ccccc1)c1ccccc1`, the inhibition was inactive: -12.3%.
With `CC(C)/C=N\N=C(\N)N[N+](=O)[O-]`, the inhibition was inactive: -8.69%.
On to `CN(C(=O)Cc1ccc(Cl)c(Cl)c1)[C@@H]1CCCC[C@H]1N1CCCC1`, for which the inhibition was inactive: -12.4%.
Under `O=[As](O)(c1ccccc1Br)c1ccccc1Br` stands inactive: -3.27%.
As for `CC1(CBr)Cn2c(nc3ccccc3c2=O)S1` (stereo not drawn), the inhibition was inactive: -2.25%.
`Cc1nc2ccc3ccccc3c2s1.O=[N+]([O-])c1cc([N+](=O)[O-])c(O)c([N+](=O)[O-])c1`: the inhibition was inactive: 3.83%.
With `O=C(OC1CN2CCC1CC2)c1ccc(Cl)cc1` (stereo not drawn), the inhibition is inactive: -8.14%.
Under `O=[As](O)(O)c1cccnc1` stands inactive: 6.4%; under `COc1cc(C(=O)NCC2(N3CCOCC3)CCCCC2)cc(Cl)c1OC(C)C`, inactive: 53.6%; under `COc1ccccc1OP(C)(=O)Nc1cccc(Br)c1` (stereo not drawn), inactive: -0.844%.
For `CS(=O)(=O)c1ccc(Cl)c(NC(=O)COC(=O)C(O)(c2ccccc2)c2ccccc2)c1`, the inhibition was inactive: -3.83%.
Turning to `Cc1cccc(OCC(=O)OC2CN3CCC2CC3)c1` (stereo not drawn), the inhibition was inactive: 1%.
Under `O=[As](O)(c1cccc(O)c1)c1cccc(O)c1` stands inactive: -5.85%; under `Cc1cc(C)cc(OP(C)(=O)Nc2ccc(C)cc2C)c1` (stereo not drawn), inactive: -10.1%; under `CCOC(=O)c1ccc(NP(C)(=O)Oc2cc(C)cc(C)c2)cc1` (stereo not drawn), inactive: 24.7%.
In the case of `Cc1cc(C)cc(OP(C)(=O)Nc2ccccn2)c1` (stereo not drawn), the inhibition was inactive: -2.33%.
With `CP(=O)(Nc1cccc(Br)c1)Oc1ccccc1` (stereo not drawn), the inhibition is inactive: -0.972%.
Take `Cc1ccc(NCCc2c([N+](=O)[O-])cc([N+](=O)[O-])cc2[N+](=O)[O-])cc1`: the inhibition was inactive: 28%.
For the molecule `Nc1cccc2c([As](=O)(O)O)cccc12`, the inhibition was inactive: -0.495%.
For `Cc1ccc(C)c(NP(C)(=O)Oc2ccccc2)c1` (stereo not drawn), the inhibition is inactive: -11.5%.
